Measurements as given in US7960404B2, “Spirocyclic cyclohexane compounds” (dated 2011).

By UniProt entry, the sequences of proteins in these tests, tags left out. Where a name states a change or a piece, a line headed by the entry shows the natural chain unless it says otherwise.
UniProt P35372, whole entry, looked up: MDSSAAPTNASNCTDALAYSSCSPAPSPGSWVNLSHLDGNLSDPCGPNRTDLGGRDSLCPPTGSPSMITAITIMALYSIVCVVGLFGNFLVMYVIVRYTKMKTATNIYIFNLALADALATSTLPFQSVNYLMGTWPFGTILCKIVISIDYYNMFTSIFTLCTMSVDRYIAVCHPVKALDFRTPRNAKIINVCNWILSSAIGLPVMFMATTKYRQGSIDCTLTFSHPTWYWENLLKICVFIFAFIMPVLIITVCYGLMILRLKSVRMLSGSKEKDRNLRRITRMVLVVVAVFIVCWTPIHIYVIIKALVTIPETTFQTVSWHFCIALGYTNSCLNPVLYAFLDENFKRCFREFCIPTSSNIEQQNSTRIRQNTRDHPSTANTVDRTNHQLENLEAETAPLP
UniProt P41146: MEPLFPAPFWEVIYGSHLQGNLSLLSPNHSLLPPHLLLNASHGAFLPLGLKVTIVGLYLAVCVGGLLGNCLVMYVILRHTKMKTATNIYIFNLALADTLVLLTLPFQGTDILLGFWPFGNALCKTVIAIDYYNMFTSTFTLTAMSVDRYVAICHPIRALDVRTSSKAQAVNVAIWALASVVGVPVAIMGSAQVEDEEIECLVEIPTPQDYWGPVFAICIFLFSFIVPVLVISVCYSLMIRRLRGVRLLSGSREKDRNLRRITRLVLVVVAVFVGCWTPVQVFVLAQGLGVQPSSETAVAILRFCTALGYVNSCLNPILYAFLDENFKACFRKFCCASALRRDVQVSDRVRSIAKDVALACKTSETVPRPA

Columns and labels:
human μ-opiate receptor = human μ-opiate receptor (Homo sapiens, UniProt P35372); assay: μ-opiate receptor binding assay with [3H] naloxone (SPA)
ORL1 receptor = ORL1 receptor (Homo sapiens, UniProt P41146); assay: ORL1 receptor binding assay with 3H-nociceptin/orphanin FQ (SPA)
[1] = Microsomal biotransformation / metabolite formation, general statements
[2] = Metabolic stability, incubation with human liver microsomes; conditions: for Conversion rate for human microsomes (300 pmol/ml): substrate 1 μmol/l, 37° C.
[3] = Metabolic stability, incubation with mouse liver microsomes; conditions: substrate 1 μmol/l, 37° C.
[4] = read-out: Ki (μ) mean, series R3=phenyl, R8=F, X=O
[5] = read-out: Ki (ORL1) mean, series R3=phenyl, R8=F, X=O

For `COc1ccc(CNC2(Cc3ccccc3)CCC3(CC2)OCCc2c3[nH]c3ccc(F)cc23)cc1` (stereo not drawn), the Ki (human μ-opiate receptor; read-out: Ki (μ), series R3=benzyl, R8=F, X=O) was 1200 nM and the “% inhibition (ORL1) [1 μM]” value (ORL1 receptor; series R3=benzyl, R8=F, X=O) was 49%.

For `NC1(Cc2ccccc2)CCC2(CC1)OCCc1c2[nH]c2ccc(F)cc12` (stereo not drawn), the “% inhibition (μ) [1 μM]” value (human μ-opiate receptor; series R3=benzyl, R8=F, X=O) was 90% and the “% inhibition (ORL1) [1 μM]” value (ORL1 receptor; series R3=benzyl, R8=F, X=O) was 27%.

For `Fc1ccc2[nH]c3c(c2c1)CCOC31CCC(c2ccccc2)(N2CCCCC2)CC1` (stereo not drawn), the “% inhibition (μ) [1 μM]” value (human μ-opiate receptor; series R3=phenyl, R8=F, X=O) was 17%, the Ki (human μ-opiate receptor; [4]) was 737 nM and the “% inhibition (ORL1) [1 μM]” value (ORL1 receptor; series R3=phenyl, R8=F, X=O) was 0%.

For `Fc1cccc(C2(N3CCC3)CCC3(CC2)OCCc2c3[nH]c3ccccc23)c1` (stereo not drawn), the Ki (human μ-opiate receptor; read-out: Ki (μ)) was 2 nM and the Ki (ORL1 receptor; read-out: Ki (ORL1)) was 4.8 nM.

In the case of `CCCCC1(N2CCCC2)CCC2(CC1)OCCc1c2[nH]c2ccc(F)cc12.O=C(O)CC(O)(CC(=O)O)C(=O)O` (stereo not drawn), the “affinity for the μ-opioid receptor (in words)” value (human μ-opiate receptor) is reported as “very high affinity”, the “% inhibition (μ) [1 μM]” value (human μ-opiate receptor; series R3=n-butyl, R8=F, X=O) is reported as 94% and the “% inhibition (ORL1) [1 μM]” value (ORL1 receptor; series R3=n-butyl, R8=F, X=O) is reported as 47%.

In the case of “N-{6′-Fluoro-4′,9′-dihydro-4-phenylspiro[cyclohexane-1,1′(3′H)-pyrano[3,4-b]indol]-4-yl}-pyrrolidine, 2-hydroxy-1,2,3-propanetricarboxylate (2:1)”, the “% inhibition (μ) [1 μM]” value (human μ-opiate receptor; series R3=phenyl, R8=F, X=O) is reported as 98%, the Ki (human μ-opiate receptor; [4]) is reported as 1.8 nM and the “formation of the N-demethyl metabolite” value [1] is reported as “do not form the N-demethyl metabolite”. For the same molecule, the “% inhibition (ORL1) [1 μM]” value (ORL1 receptor; series R3=phenyl, R8=F, X=O) was 56%, the Ki (ORL1 receptor; [5]) was 383 nM and the “conversion with human microsomes (in words)” value ([2]; human liver microsomes) was “particularly low conversion rates”. The “conversion rate as share of that of V-1” value ([2]; human microsomes, rate as % of V-1) was “around 30%”, the “Conversion rate for human microsomes (300 pmol/ml)” value [2] was 0.0105 nmol/min/nmol P450 and the “Conversion rate for mouse microsomes (300 pmol/ml)” value [3] was 0.0200 nmol/min/nmol P450.

In the case of `CN1CCN(C2(c3ccccc3)CCC3(CC2)OCCc2c3[nH]c3ccc(F)cc23)CC1` (stereo not drawn), the “% inhibition (μ) [1 μM]” value (human μ-opiate receptor; series R3=phenyl, R8=F, X=O) is reported as 65%, the Ki (human μ-opiate receptor; [4]) is reported as 1410 nM and the “% inhibition (ORL1) [1 μM]” value (ORL1 receptor; series R3=phenyl, R8=F, X=O) is reported as 76%.

For `Fc1ccc2[nH]c3c(c2c1)CCOC31CCC(Nc2ccccc2)(c2ccccc2)CC1` (stereo not drawn), the “% inhibition (μ) [1 μM]” value (human μ-opiate receptor; series R3=phenyl, R8=F, X=O) was −16%, the Ki (human μ-opiate receptor; [4]) was 6940 nM and the “% inhibition (ORL1) [1 μM]” value (ORL1 receptor; series R3=phenyl, R8=F, X=O) was −8%. The Ki (ORL1 receptor; [5]) was 2900 nM.

With `CN(C)C1(c2ccccc2)CCC2(CC1)OCCc1c2[nH]c2ccc(F)cc12` (stereo not drawn) the “% inhibition (μ) [1 μM]” value (human μ-opiate receptor; series R3=phenyl, R8=F, X=O) was 86%, the Ki (human μ-opiate receptor; [4]) was 2.7 nM and the “% inhibition (ORL1) [1 μM]” value (ORL1 receptor; series R3=phenyl, R8=F, X=O) was 99%. For the same molecule, the Ki (ORL1 receptor; [5]) was 3.2 nM, the “Conversion rate for human microsomes (300 pmol/ml)” value [2] was 0.0300 nmol/min/nmol P450 and the “Conversion rate for mouse microsomes (300 pmol/ml)” value [3] was 0.0255 nmol/min/nmol P450.

`Fc1ccc2[nH]c3c(c2c1)CCOC31CCC(c2cccs2)(N2CCC2)CC1` (stereo not drawn) gave a Ki (human μ-opiate receptor; read-out: Ki (μ)) of 4.8 nM and a Ki (ORL1 receptor; read-out: Ki (ORL1)) of 6.6 nM.

For `c1ccc(C2(N3CCCC3)CCC3(CC2)OCCc2c3[nH]c3ccccc23)cc1` (stereo not drawn), the Ki (human μ-opiate receptor; read-out: Ki (μ) mean [μm], series R3=phenyl, R8=H, X=O) was 9.8 nM, the “% inhibition (ORL1) [1 μM]” value (ORL1 receptor; series R3=phenyl, R8=H, X=O) was 61% and the Ki (ORL1 receptor; read-out: Ki (ORL1) mean [μm], series R3=phenyl, R8=H, X=O) was 110 nM.

Like-named read-outs stand apart in the source and are kept apart here.
